SMARCA2 act: SMARCA2 (BRM) function activators, primary screen, cell-based, luminescence, high throughput | AID 652017, 2013 | MG213 cells, MMTV-luciferase reporter, dexamethasone, overnight | activation, % at 9.1 µM | 1% of 370,000 active; in the data active = activation above about 7.8%;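 also: 0% = vehicle wells and 100% = reference activator wells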
NR1D1 modulator: modulators of Rev-erb alpha DNA binding, primary screen, biochemical, FITC-DNA, fluorescence polarization, uHTS; Nuclear receptor subfamily 1 group D member 1 (Homo sapiens), P20393; Rev-erbα–FITC-DNA binding, 90 min; activity, % at 10 µM; 0.79% of 370,000 active; AID 1259318, 2017;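 active = activity above about 14%, limit read from the data; passing the limit was not always enough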;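 also: 0% = DMSO wells with 35 nM protein and 100% = DMSO wells with 750 nM protein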
PDI inh: inhibitors of human PDI, primary screen, biochemical, turbidity, single point, plate reader; Protein disulfide-isomerase (Homo sapiens), P07237; PDI insulin aggregation turbidity, A650, 90 min; inhibition, % at 10 µM; 0.052% of 350,000 active; AID 588391, 2011;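 active = mean inhibition across replicates of 30% or more, whatever share of single replicates reach that level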
ERp5 inh: inhibitors of ERp5-driven insulin aggregation, primary screen, biochemical, turbidity, absorbance 650 nm, single point; inhibition, % at 9.99 µM; 0.05% of 350,000 active; 90 min;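 active = mean replicate inhibition above about 25%, with every replicate also reaching it, limit read from the data, passing the limit was not always enough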
GSIS activator: GLuc luminescence reporter in INS-1E cells, primary screen for activators of glucose-dependent secretion of insulin. INS-1E GLuc reporter insulin secretion, 2-3 h. activation, % at 16.6 µM. 0.61% of 370,000 active;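 active = lowest replicate activation of at least 40%, so every replicate reaches that level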;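 also: 0% = median of neutral control wells and 100% = median of IBMX positive control wells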
UUG fidelity: alters start codon recognition fidelity in yeast | S. cerevisiae UUG-firefly luciferase reporter, luminescence/redox ratio | activity score, % at 18.7 µM | 350,000 compounds, 0.13% hits | AID 602363;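 active = replicate mean at a twofold rise or more, about +100% in these data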;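 note: firefly luciferase made from a UUG start codon reports start codon fidelity; reporter light over untreated wells divided by growth signal over untreated wells; some hits fall short of that in this replicate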
SMARCA2 conf: SMARCA2 (BRM) function activators, confirmation, cell-based, luminescence, triplicate | MG213 cells, MMTV-luciferase with dexamethasone, overnight; MG213 cells expressing E1A, Rb sequestered; DMSO wells 0%, reference activator 100% | AID 652260, 2013 | 30% of 3,500 active | shares compounds with SMARCA2 act | activation, % at 9.1 µM;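 active = activation above its plate's cutoff, the mean activation of tested wells plus 3 SD, cut at about 7.9% in these data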
VP16 Luc act: GAL4-VP16 luciferase reporter activation, counter-screen for SMARCA2 (BRM) activator project, cell-based, pG5luc, luminescence, high throughput; 41% of 3,500 active; activation, % at 9.1 µM; shares compounds with SMARCA2 act; HEK293 GAL4-VP16 pG5luc reporter; scaled: DMSO wells 0%, SAHA wells 100%; AID 686939, 2013;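 active = activation above the solvent-only control well mean plus 3 SD, averaged across control plates, cut at about 5.2% in these data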
Numbers without * were called inactive; / = no result given. This is a sample that favours compounds with a hit; in the whole collection about 2.1% have one here.

Amino acid sequences for entries named in this document (tags omitted).
Protein disulfide-isomerase (Homo sapiens), P07237, UniProt P07237, whole entry, looked up: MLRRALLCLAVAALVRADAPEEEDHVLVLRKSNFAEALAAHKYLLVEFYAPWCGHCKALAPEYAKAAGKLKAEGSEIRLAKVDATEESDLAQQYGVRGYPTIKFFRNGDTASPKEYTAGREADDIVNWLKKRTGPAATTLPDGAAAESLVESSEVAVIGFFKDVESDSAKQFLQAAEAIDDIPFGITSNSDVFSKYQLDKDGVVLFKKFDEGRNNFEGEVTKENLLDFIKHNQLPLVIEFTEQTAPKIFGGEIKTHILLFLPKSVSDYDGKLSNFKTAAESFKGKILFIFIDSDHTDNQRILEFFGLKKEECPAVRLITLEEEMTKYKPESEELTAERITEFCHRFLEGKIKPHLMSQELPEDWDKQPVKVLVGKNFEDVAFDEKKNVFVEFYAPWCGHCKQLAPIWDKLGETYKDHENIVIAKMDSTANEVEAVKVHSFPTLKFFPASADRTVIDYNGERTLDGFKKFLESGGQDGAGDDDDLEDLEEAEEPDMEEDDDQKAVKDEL

1) Cc1noc(C)c1NC(=O)Nc1ccc2c(c1)CC(=O)N([C@H](C)CO)C[C@H](C)[C@H](CN(C)S(=O)(=O)c1cn(C)cn1)O2
2) CCOC(=O)C1CCN(C(=O)c2cc3c(ccc4ccccc43)o2)CC1
3) CC1CCN(C(=O)c2cc3c(ccc4ccccc43)o2)CC1
4) CN(C)CC(=O)Nc1ccc2c(c1)[C@H]1C[C@H](CC(=O)NC3CCCC3)O[C@H](CO)[C@H]1O2
5) COc1ccc(Nc2cc(C(=O)NCCCN3CCOCC3)c3ccccc3n2)cc1OC
6) O=C(C[C@H]1CC[C@H]2[C@@H](COC[C@@H](O)CN2Cc2ccc(Oc3ccccc3)cc2)O1)N1CCOCC1
7) CC(C)CCN(C(=O)c1ccccn1)c1c(N)n(Cc2ccccc2)c(=O)[nH]c1=O
8) CC(C)CCN(C(=O)Cc1ccccc1F)c1c(N)n(Cc2ccccc2)c(=O)[nH]c1=O

| screen / no. | 1 | 2 | 3 | 4 | 5 | 6 | 7 | 8 |
| --- | --- | --- | --- | --- | --- | --- | --- | --- |
| SMARCA2 act | / | 9.0* | 3 | / | 9.8* | / | 8.3* | 3 |
| NR1D1 modulator | / | -2 | -1 | / | 0 | / | -4 | -2 |
| PDI inh | / | -6 | 1 | / | -8 | / | -4 | -8 |
| ERp5 inh | / | 2 | 0 | -4 | / | 9 | 3 | -4 |
| GSIS activator | 3 | -20 | -7 | 5 | 3 | 1 | 17 | -11 |
| UUG fidelity | -10 | -6 | -52 | 5 | 3 | 10 | -14 | / |
| SMARCA2 conf | / | 11* | / | / | 1 | / | -5 | / |
| VP16 Luc act | / | 7.3* | / | / | 1 | / | 0 | / |

In another format: 2 of the compounds above.
Under each structure: SMARCA2 act, NR1D1 modulator, PDI inh, ERp5 inh, GSIS activator, UUG fidelity, SMARCA2 conf, VP16 Luc act
2: CCOC(=O)C1CCN(C(=O)c2cc3c(ccc4ccccc43)o2)CC1
  9.0*, -2, -6, 2, -20, -6, 11*, 7.3*
3: CC1CCN(C(=O)c2cc3c(ccc4ccccc43)o2)CC1
  3, -1, 1, 0, -7, -52, /, /

More compounds:
9) O=C(C[C@H]1C=C[C@@H](NC(=O)Nc2ccc(F)cc2)[C@H](CO)O1)NCCN1CCCC1
10) COc1ccc(-c2cc(=O)n(-c3nc4ccccc4[nH]3)[nH]2)cc1
11) CC(C)(C)c1ccc(NC(=O)Nc2ccc(OCC(=O)N3CCOCC3)cc2)cc1
12) CCOc1ccc(S(=O)(=O)N2CCC(C(=O)NCc3ccccc3CN3CCCC3)CC2)cc1
13) CNC[C@@H]1Oc2ccc(NS(C)(=O)=O)cc2C(=O)N(C)C[C@H]1C
14) Cn1cnc([N+](=O)[O-])c1S(=O)(=O)Oc1ccccc1
15) O=C(CCc1nnc(CCCc2ccccc2)o1)NCC(F)(F)F
16) O=C(CCc1nnc(CCCc2ccccc2)o1)NCCCC1CCCC1

| screen / no. | 9 | 10 | 11 | 12 | 13 | 14 | 15 | 16 |
| --- | --- | --- | --- | --- | --- | --- | --- | --- |
| SMARCA2 act | / | 8.4* | 8.2* | 12* | / | 20* | 5 | 9.7* |
| NR1D1 modulator | / | -2 | -5 | 2 | / | -3 | -4 | 2 |
| PDI inh | / | -3 | 13 | -9 | / | -5 | -3 | -5 |
| ERp5 inh | 2 | / | 3 | 0 | / | 13 | -2 | 2 |
| GSIS activator | -3 | / | -18 | -13 | -5 | 54* | 6 | -44 |
| UUG fidelity | 4 | -26 | / | 1 | / | -30 | / | / |
| SMARCA2 conf | / | 18* | 5 | -2 | / | -14 | / | 5 |
| VP16 Luc act | / | 3 | 15* | 1 | / | 6.3* | / | 6.5* |

17) N#CCCN(CCCN1CCOCC1)CN1C(=O)c2ccccc2C1=O
18) O=C(CCCN1C(=O)c2ccccc2C1=O)NCCCN1CCOCC1
19) CNS(=O)(=O)c1ccc(NC(=S)Nc2ccc3c(c2)OCO3)cc1
20) O=S(=O)(c1ccc(NC(=S)Nc2ccc3c(c2)OCO3)cc1)N1CCOCC1
21) CCC(=O)Nc1ccc2c(c1)ncn2-c1ccc(C)cc1
22) CCC(=O)Nc1ccc2c(c1)ncn2-c1ccc(OC)cc1
23) C=C1C(=O)OC2C1CCC(C)C1C=CC(=O)C12C (stereo not drawn)

| screen / no. | 17 | 18 | 19 | 20 | 21 | 22 | 23 |
| --- | --- | --- | --- | --- | --- | --- | --- |
| SMARCA2 act | 8.1* | -2 | 9.0* | 3 | 8.6* | 2 | 21* |
| NR1D1 modulator | 5 | -1 | 2 | 4 | 7 | / | -7 |
| PDI inh | 9 | -2 | 0 | 21 | 3 | 1 | 1 |
| ERp5 inh | 3 | / | 1 | / | -1 | / | -7 |
| GSIS activator | 17 | / | 5 | 5 | 2 | / | 1 |
| UUG fidelity | -26 | -11 | / | -24 | 2 | -6 | / |
| SMARCA2 conf | -2 | / | 3 | / | 6 | / | 21* |
| VP16 Luc act | 1 | / | 0 | / | 8.7* | / | 4 |

Screens deposited in PubChem by several laboratories.
